Results as given in patent US9233127B2, “Compositions and methods for CXCR4 signaling and umbilical cord blood stem cell engraftment” (University of Virginia Patent Foundation, priority 2012, dated 2016).

Test system: UCB T-cells
Experiment: Cytoplasmic IFN-γ and NFAT1 expression in UCB T-cells during mitogen stimulation
Format: cell-based, human
Settings: exogenous cytokine added during mitogen stimulation; IFN-γ 100 or 1,000 U/ml; 24 h
Experimental: To further test expression and regulation, exogenous IFN-γ was added (100 or 1,000 U/ml) during mitogen stimulation and cytoplasmic IFN-γ expression in UCB T-cells was measured. […] Importantly however, the rescue-effect on IFN-γ expression in UCB T cells depended on up-regulation of NFAT1, as shown by dual staining for NFAT1 and IFN-γ (FIG. 21A-C). IFN-γ expression was only observed in NFAT1 co-expressing T-cells.

IL-2: cytokine added during mitogen stimulation
percentages of IFN-γ-expressing UCB T-cells: did not result in up-regulation
